Assay results: patent publication US20260384438A1, “PYRROLOPYRIMIDINE CARBOXAMIDES” (published 2026)

Protein sequences, listed by entry. Tags and fused reporters are not part of them. Residues count along the entry.
UniProt Q99640, 75-362 limits assumed: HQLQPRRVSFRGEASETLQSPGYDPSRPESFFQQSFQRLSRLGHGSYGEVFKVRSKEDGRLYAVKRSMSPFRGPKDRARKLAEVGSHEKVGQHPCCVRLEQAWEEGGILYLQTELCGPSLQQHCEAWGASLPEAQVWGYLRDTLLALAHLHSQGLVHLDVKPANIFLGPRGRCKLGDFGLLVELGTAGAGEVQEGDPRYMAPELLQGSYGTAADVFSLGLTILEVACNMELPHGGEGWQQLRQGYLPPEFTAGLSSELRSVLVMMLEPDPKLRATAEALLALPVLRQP
UniProt O15111, whole entry: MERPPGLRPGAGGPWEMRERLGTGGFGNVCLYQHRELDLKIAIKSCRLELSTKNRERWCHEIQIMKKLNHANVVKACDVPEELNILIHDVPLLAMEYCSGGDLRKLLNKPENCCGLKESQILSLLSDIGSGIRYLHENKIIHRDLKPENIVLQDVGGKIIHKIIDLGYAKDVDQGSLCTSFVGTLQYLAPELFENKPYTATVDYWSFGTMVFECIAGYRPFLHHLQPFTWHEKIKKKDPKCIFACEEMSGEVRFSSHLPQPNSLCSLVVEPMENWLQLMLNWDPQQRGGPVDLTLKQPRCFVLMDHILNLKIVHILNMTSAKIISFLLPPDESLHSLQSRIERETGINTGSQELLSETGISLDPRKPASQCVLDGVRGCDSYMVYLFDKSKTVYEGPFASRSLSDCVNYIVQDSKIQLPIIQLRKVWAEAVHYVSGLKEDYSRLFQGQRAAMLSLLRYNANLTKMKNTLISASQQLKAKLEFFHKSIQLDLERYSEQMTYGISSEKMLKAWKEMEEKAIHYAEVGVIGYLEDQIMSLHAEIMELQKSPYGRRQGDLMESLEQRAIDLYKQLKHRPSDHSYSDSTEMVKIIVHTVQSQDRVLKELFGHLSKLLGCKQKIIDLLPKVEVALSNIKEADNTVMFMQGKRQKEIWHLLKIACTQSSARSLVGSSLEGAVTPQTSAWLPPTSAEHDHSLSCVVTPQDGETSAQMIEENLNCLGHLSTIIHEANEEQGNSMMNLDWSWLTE
UniProt P35968, 20-1356 limits assumed: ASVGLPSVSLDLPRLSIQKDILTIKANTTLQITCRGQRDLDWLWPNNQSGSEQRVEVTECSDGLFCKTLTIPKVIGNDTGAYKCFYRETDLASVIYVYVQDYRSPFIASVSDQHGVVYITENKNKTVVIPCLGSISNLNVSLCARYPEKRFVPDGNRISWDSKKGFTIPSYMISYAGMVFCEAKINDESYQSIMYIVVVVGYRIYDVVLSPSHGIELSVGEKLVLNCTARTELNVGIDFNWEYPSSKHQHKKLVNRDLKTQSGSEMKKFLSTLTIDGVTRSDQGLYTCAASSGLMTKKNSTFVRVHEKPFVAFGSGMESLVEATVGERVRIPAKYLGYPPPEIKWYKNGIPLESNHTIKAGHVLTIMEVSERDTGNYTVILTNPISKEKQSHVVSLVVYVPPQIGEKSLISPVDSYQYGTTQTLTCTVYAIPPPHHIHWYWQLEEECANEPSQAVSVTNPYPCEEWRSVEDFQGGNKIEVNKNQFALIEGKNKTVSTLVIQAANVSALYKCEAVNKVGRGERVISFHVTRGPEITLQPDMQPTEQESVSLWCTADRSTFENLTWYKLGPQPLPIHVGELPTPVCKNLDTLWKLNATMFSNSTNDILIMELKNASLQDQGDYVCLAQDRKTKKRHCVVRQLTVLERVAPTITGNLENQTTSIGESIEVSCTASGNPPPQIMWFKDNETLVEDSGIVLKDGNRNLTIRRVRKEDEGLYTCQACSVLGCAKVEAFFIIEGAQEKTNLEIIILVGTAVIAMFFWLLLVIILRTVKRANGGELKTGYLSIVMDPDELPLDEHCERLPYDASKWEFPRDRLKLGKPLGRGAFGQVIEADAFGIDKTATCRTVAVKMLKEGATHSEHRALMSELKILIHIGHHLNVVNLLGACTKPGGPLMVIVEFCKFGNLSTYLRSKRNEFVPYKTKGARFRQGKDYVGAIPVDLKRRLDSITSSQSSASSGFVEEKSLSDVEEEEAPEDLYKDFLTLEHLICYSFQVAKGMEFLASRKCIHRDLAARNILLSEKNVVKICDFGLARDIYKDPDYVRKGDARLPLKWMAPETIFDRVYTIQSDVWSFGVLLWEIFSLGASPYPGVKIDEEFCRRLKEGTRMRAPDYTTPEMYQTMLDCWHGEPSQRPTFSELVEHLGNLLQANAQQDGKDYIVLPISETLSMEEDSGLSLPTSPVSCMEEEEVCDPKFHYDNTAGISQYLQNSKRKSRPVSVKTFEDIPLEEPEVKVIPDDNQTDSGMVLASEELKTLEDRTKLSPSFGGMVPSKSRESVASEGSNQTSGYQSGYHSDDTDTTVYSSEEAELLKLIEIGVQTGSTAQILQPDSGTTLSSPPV
UniProt P06213, 28-1382 limits assumed: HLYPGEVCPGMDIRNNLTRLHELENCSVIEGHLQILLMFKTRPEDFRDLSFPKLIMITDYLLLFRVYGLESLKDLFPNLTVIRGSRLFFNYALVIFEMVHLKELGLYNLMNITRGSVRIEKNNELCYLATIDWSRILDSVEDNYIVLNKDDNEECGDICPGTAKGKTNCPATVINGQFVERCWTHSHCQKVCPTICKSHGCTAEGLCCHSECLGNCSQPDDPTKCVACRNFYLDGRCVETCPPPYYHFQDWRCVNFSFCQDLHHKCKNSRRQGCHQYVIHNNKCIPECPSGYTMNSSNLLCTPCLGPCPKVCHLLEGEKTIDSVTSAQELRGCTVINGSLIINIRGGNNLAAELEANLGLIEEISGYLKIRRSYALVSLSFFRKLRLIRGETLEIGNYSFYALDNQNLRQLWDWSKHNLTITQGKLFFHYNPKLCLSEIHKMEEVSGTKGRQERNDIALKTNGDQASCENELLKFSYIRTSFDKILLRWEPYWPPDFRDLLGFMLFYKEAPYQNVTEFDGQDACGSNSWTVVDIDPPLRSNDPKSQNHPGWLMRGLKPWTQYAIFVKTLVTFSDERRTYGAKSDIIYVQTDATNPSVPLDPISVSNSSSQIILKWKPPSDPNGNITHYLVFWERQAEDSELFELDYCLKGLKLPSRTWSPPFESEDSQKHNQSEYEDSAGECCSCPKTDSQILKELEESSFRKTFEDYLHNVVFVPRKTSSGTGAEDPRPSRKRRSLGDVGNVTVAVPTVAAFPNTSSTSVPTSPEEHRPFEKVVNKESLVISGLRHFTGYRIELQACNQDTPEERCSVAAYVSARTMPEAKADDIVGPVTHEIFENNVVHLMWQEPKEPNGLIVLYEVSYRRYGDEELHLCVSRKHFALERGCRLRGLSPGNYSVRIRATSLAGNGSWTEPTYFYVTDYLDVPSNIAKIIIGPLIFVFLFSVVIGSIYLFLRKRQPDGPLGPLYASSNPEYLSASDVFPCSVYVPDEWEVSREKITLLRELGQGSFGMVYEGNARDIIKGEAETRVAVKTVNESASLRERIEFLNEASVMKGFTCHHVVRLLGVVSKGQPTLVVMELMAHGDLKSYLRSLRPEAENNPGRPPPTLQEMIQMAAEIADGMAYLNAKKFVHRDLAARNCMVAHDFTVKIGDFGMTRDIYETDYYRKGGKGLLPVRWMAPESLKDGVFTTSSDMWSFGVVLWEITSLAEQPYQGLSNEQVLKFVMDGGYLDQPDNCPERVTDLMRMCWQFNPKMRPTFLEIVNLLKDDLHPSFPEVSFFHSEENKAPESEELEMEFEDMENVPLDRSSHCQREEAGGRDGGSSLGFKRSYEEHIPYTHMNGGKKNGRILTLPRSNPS
UniProt Q9UQL6, whole entry: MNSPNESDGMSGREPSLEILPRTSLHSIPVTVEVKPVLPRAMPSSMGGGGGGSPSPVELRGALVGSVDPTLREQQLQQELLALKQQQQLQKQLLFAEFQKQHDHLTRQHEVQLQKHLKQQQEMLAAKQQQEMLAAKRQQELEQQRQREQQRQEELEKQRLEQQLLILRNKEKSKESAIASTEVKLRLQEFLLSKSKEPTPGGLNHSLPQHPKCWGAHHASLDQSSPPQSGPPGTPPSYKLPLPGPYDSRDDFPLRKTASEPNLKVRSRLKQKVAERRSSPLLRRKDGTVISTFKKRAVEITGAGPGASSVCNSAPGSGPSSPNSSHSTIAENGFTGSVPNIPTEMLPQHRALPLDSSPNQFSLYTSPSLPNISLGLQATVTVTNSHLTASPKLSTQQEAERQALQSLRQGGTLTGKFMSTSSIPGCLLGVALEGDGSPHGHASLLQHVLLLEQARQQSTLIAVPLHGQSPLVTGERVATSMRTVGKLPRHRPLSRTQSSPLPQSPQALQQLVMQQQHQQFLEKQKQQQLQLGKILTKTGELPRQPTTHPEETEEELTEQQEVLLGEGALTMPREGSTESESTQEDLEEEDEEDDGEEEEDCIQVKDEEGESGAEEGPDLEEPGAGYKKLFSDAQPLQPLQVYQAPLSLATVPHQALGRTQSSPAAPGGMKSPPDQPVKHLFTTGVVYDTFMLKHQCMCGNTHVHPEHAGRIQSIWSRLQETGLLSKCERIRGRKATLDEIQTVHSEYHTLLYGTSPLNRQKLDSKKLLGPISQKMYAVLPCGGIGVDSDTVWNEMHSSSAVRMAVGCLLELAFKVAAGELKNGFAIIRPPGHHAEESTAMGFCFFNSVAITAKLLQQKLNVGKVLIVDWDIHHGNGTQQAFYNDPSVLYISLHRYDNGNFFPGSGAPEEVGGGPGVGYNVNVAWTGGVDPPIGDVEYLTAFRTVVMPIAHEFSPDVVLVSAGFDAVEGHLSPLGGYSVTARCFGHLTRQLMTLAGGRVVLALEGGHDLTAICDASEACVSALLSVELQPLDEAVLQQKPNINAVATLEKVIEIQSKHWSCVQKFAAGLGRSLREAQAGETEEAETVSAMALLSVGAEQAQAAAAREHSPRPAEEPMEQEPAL
UniProt P11362, 22-822 limits assumed: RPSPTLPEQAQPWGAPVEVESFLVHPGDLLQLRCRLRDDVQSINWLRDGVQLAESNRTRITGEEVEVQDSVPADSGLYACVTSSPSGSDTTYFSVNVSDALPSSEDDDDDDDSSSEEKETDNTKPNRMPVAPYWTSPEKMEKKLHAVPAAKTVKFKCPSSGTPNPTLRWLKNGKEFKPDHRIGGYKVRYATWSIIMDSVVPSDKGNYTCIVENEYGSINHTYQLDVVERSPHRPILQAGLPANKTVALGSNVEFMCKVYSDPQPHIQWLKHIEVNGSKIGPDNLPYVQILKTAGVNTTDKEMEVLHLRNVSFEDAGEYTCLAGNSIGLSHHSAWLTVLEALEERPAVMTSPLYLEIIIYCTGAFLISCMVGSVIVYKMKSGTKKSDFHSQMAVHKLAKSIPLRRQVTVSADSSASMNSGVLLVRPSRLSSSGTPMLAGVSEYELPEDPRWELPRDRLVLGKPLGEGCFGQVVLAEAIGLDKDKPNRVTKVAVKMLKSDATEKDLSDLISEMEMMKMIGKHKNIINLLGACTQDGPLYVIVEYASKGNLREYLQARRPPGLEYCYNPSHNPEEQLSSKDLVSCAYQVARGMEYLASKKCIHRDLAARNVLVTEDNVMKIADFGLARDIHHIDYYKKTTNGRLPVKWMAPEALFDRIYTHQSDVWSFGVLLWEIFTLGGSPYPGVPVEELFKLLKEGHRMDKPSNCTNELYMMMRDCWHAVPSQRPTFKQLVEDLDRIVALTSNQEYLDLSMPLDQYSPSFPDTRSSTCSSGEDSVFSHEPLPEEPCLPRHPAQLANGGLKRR
UniProt P23439, whole entry: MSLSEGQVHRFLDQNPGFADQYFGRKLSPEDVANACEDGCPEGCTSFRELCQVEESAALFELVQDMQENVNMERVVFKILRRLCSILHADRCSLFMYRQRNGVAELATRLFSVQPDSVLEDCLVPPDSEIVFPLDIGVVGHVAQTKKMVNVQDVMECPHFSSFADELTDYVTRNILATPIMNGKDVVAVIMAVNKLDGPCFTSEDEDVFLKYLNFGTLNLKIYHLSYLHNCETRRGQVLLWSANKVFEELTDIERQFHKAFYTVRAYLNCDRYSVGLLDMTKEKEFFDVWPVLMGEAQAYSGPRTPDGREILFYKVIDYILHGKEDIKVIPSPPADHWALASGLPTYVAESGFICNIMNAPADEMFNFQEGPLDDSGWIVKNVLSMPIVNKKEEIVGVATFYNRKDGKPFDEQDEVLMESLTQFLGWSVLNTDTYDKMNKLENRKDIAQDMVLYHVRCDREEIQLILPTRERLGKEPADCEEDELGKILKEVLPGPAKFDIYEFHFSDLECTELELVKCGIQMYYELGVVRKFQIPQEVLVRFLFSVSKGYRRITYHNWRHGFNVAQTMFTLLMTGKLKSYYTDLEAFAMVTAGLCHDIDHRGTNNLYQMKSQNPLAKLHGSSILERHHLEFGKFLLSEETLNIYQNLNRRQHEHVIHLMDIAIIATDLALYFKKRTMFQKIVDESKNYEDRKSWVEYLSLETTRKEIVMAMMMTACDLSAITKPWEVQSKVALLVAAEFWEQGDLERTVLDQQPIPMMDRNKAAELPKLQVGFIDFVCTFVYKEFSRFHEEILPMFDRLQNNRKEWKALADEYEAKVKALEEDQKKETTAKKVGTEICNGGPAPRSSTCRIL

Assays:
[1] = In vivo pharmacokinetics in male Han Wistar rats at high dose (P.O., 10/30/100 mg/kg)
OVCAR3 cells [2] = assay: Effect on cell cycle / DDR signaling, immunoblotting; settings: OVCAR3, 24 h
CYP2D6 = CYP2D6 (Homo sapiens, UniProt P10635); assay: CYP inhibition, CYP2D6; settings: read-out: CYP2D6 inhibition IC50; HLM, bufuralol 5 μM
ANKK1 = ANKK1 (Homo sapiens, UniProt Q8NFD2); assay: Kinase profiling, Lantha v2; settings: 1 μM, KmATP
TESK2 = TESK2 (Homo sapiens, UniProt Q96S53); assay: Kinase profiling, Lantha v2; settings: 1 μM, KmATP
PKMYT1 [3] = target: PKMYT1 (Homo sapiens, UniProt Q99640); assay: SPR direct binding assay; settings: 25 °C
OVCAR3 cells [4] = assay: Cellular proliferation (Hoechst staining), OVCAR3; settings: read-out: OVCAR3 GI50; CCNE1-amplified, 4 days
PKMYT1 [5] = assay: In vivo PKMYT1 target engagement (tumor phospho-CDK1 Thr14) in OVCAR3 tumor-bearing SCID mice; settings: 10, 30, 100 mg/kg BID oral, all three doses, 21 days
PIK3CB = PIK3CB (Homo sapiens, UniProt P42338); assay: Kinase profiling, Adapta; settings: 1 μM, KmATP
CHUK(IKK alpha) = CHUK(IKK alpha) (Homo sapiens, UniProt O15111); assay: Kinase profiling, Adapta; settings: 1 μM, KmATP
[6] = In vivo pharmacokinetics in intact male Han Wistar rats (I.V.); settings: intact male Han Wistar rat, I.V. 0.5 mg/kg
[7] = In vivo tolerability, combination with gemcitabine, female SCID mice
[8] = target: Kinase insert domain receptor kinase (KDR) (Homo sapiens, UniProt P35968); assay: Secondary pharmacology, enzyme
[9] = target: Insulin receptor kinase (IRK) (Homo sapiens, UniProt P06213); assay: Secondary pharmacology, enzyme
Histone deacetylase 5 = Histone deacetylase 5 (Homo sapiens, UniProt Q9UQL6); assay: Secondary pharmacology, enzyme
[10] = target: Phosphodiesterase PDE10A2 (Homo sapiens, UniProt Q9Y233); assay: Secondary pharmacology, enzyme
Thromboxane A2 synthase = Thromboxane A2 synthase (Homo sapiens, UniProt P24557); assay: Secondary pharmacology, enzyme
[11] = target: Fibroblast growth factor receptor 1 kinase (FGFR1 kinase) (Homo sapiens, UniProt P11362); assay: Secondary pharmacology, enzyme
[12] = target: Neurotrophic receptor kinase 1 (NTRK1) (Homo sapiens, UniProt P04629); assay: Secondary pharmacology, enzyme
[13] = target: Prostaglandin-endoperoxide synthase 1 (COX1) (Homo sapiens, UniProt P23219); assay: Secondary pharmacology, enzyme
[14] = target: Rho Associated, Coiled Coil Containing Protein Kinase 2 (ROCK2) (Homo sapiens, UniProt O75116); assay: Secondary pharmacology, enzyme
[15] = target: Lymphocyte-specific protein tyrosine kinase (Homo sapiens, UniProt P06239); assay: Secondary pharmacology, enzyme
ALK4 Kinase = ALK4 Kinase (Homo sapiens, UniProt P36896); assay: Secondary pharmacology, enzyme
[16] = target: Mitogen activated protein kinase kinase kinase 7 (MAPKKK7) (Homo sapiens, UniProt O43318); assay: Secondary pharmacology, enzyme
Phosphodiesterase PDE4D2 = Phosphodiesterase PDE4D2 (Homo sapiens, UniProt Q08499); assay: Secondary pharmacology, enzyme
Phosphodiesterase PDE6 = Phosphodiesterase PDE6 (Bos taurus, UniProt P11541+P23439); assay: Secondary pharmacology, enzyme
V-src sarcoma Kinase = V-src sarcoma Kinase (Homo sapiens, UniProt P12931); assay: Secondary pharmacology, enzyme
[17] = target: Prostaglandin-endoperoxide synthase 2 (COX2) (Homo sapiens, UniProt P35354); assay: Secondary pharmacology, enzyme
[18] = In vivo pharmacokinetics in male CD-1 mice (I.V. or P.O.)
[19] = single-cycle kinetics, 1:1 binding

Cc1nc(C(F)(F)F)c2c(C(N)=O)c(N)n(-c3c(C)ccc(O)c3C)c2n1 (single isomer, unassigned)
AUC ([1]; P.O. 10 mg/kg): 12.2 µM·h | Cmax ([1]; P.O. 10 mg/kg): 1390 nM | Tmax ([1]; P.O. 10 mg/kg): 0.667 h | t1/2 ([1]; P.O. 10 mg/kg): 6.77 h | AUC ([1]; P.O. 30 mg/kg): 41.8 µM·h | Cmax ([1]; P.O. 30 mg/kg): 4520 nM | Tmax ([1]; P.O. 30 mg/kg): 0.333 h | t1/2 ([1]; P.O. 30 mg/kg): 9.10 h | phospho-CDK1 Thr14 levels (OVCAR3 cells [2]): concentration-dependent reduction of phospho-CDK1 Thr14 levels | phospho-CDK1 Tyr15 expression (WEE1 substrate) (OVCAR3 cells [2]): without affecting expression | phospho-Histone H3 Ser10 expression (OVCAR3 cells [2]): increased | phosphorylation of phospho-CHK1, phospho-RPA2 (DNA damage biomarkers) (OVCAR3 cells [2]): minimal to no phosphorylation | IC50 (CYP2D6): > 30 µM | MEAN INHIBITION (ANKK1): −2.285% | MEAN INHIBITION (TESK2): 5.530% | OFF RATE koff (PKMYT1 [3]; [19]): 0.0001 s⁻¹ | ON RATE kon (PKMYT1 [3]; [19]): 240000 M⁻¹ s⁻¹ | Kd (PKMYT1 [3]; read-out: BINDING AFFINITY KD, SPR): 0.00042 µM | GI50 (OVCAR3 cells [4]): 2.21 µM | PKMYT1 kinase inhibition versus vehicle (PKMYT1 [5]): significant PKMTYT1 kinase inhibition | MEAN INHIBITION (PIK3CB): −6.281% | MEAN INHIBITION (CHUK(IKK alpha)): 11.354% | AUC [6]: 1.34 µM·h | CL [6]: 16.7 mL/min/kg | Cmax [6]: 1400 nM | Tmax [6]: 1.8 min | VSS [6]: 7.87 L/kg | t1/2 [6]: 10.3 h | body weight loss, paw or tail swelling, adverse events ([7]; 100 mg/kg BID + gemcitabine 20 mg/kg weekly, 28 days): No significant loss of body weight, paw or tail swelling, or other noticeable adverse events | free Cmax ([7]; 100 mg/kg BID oral, with gemcitabine, SCID mice): approximately 5.7 μM | Pharmacological mode of action [8]: Inhibitor | IC50 ([8]; read-out: Enzyme IC50): 78 µM | Pharmacological mode of action [9]: Inactive | IC50 ([9]; read-out: Enzyme IC50): > 100 µM | Pharmacological mode of action (Histone deacetylase 5): Inactive | IC50 (Histone deacetylase 5; read-out: Enzyme IC50): > 10 µM | Pharmacological mode of action [10]: Inactive | IC50 ([10]; read-out: Enzyme IC50): > 100 µM | Pharmacological mode of action (Thromboxane A2 synthase): Inhibitor | IC50 (Thromboxane A2 synthase; read-out: Enzyme IC50): 90 µM | Pharmacological mode of action [11]: Inhibitor | IC50 ([11]; read-out: Enzyme IC50): 40 µM | Pharmacological mode of action [12]: Inactive | IC50 ([12]; read-out: Enzyme IC50): > 100 µM | Pharmacological mode of action [13]: Inactive | IC50 ([13]; read-out: Enzyme IC50): > 100 µM | Pharmacological mode of action [14]: Inactive | IC50 ([14]; read-out: Enzyme IC50): > 100 µM | Pharmacological mode of action [15]: Inhibitor | IC50 ([15]; read-out: Enzyme IC50): 53 µM | Pharmacological mode of action (ALK4 Kinase): Inhibitor | IC50 (ALK4 Kinase; read-out: Enzyme IC50): 0.19 µM | Pharmacological mode of action [16]: Inactive | IC50 ([16]; read-out: Enzyme IC50): > 100 µM | Pharmacological mode of action (Phosphodiesterase PDE4D2): Inactive | IC50 (Phosphodiesterase PDE4D2; read-out: Enzyme IC50): > 100 µM | Pharmacological mode of action (Phosphodiesterase PDE6): Inactive | IC50 (Phosphodiesterase PDE6; read-out: Enzyme IC50): > 100 µM | Pharmacological mode of action (V-src sarcoma Kinase): Inhibitor | IC50 (V-src sarcoma Kinase; read-out: Enzyme IC50): 0.15 µM | Pharmacological mode of action [17]: Inactive | IC50 ([17]; read-out: Enzyme IC50): > 100 µM | AUC ([18]; I.V. 0.5 mg/kg): 1.34 µM·h | CL ([18]; I.V. 0.5 mg/kg): 16.7 mL/min/kg | Cmax ([18]; I.V. 0.5 mg/kg): 1400 nM | Tmax ([18]; I.V. 0.5 mg/kg): 0.03 h | VSS ([18]; I.V. 0.5 mg/kg): 7.87 L/kg | t1/2 ([18]; I.V. 0.5 mg/kg): 10.3 h | AUC ([18]; P.O. 1.0 mg/kg): 1.84 µM·h | Cmax ([18]; P.O. 1.0 mg/kg): 300 nM | Tmax ([18]; P.O. 1.0 mg/kg): 0.5 h | t1/2 ([18]; P.O. 1.0 mg/kg): 5.37 h
